Source: US20240293483A1, “PROBIOTIC COMPOSITION FOR THE TREATMENT OF INCREASED INTESTINAL PERMEABILITY” (AB-BIOTICS, S.A., priority 2021, published 2024)

Assay: Stability of the strain in final product (plate counting of cfus, Zone II storage)
Type: physicochemical
Conditions: 25° C., 60% RH, 0 vs 12 months
Method: The product was packaged in glass amber bottles and stored under Zone II conditions (25° C., 60% Relative Humidity (RH)). […] Results were expressed in LOG (cfus). Trend line was obtained and predicted cfus at 12 months were estimated. Fold and log reduction comparing cfus between 0 and 12 months were calculated.

## Bifidobacterium longum subsp. longum KABP-042 (CECT 7894)
  fold reduction of cfus over 12 months: 3 fold
